What was measured:
CYP450 = CYP450 activity of liver organoids differentiated with ferric citrate (LC-MS/MS); settings: liver organoids cultured in suspension (S-HO FC); except for CYP1A2; measured for 24 hours
Protocol: The samples were centrifuged at 16,000 g for 10 minutes at 4° C. and the supernatant was applied to liquid chromatography-tandem mass spectrometry (LC-MS/MS). Data were normalized to protein concentration.

liver organoids = settings: 20 μM in the medium composition of Tables 8 and 9; liver organoid differentiation for 15 days

## ferric citrate
CYP450
  CYP450 activity: greatly increased
Liver organoids
  cytotoxicity: did not exhibit cytotoxicity

Source: US12146155B2, “Method for constructing human pluripotent stem cell-derived liver organoid having enhanced drug metabolic potential and liver organoid constructed by same method” (KOREA RESEARCH INSTITUTE OF CHEMICAL TECHNOLOGY, priority 2021, dated 2024)
